{"sequences": {"note": "The chains behind the UniProt entries cited, without tags or fusion partners.", "UniProt P35367, whole entry": "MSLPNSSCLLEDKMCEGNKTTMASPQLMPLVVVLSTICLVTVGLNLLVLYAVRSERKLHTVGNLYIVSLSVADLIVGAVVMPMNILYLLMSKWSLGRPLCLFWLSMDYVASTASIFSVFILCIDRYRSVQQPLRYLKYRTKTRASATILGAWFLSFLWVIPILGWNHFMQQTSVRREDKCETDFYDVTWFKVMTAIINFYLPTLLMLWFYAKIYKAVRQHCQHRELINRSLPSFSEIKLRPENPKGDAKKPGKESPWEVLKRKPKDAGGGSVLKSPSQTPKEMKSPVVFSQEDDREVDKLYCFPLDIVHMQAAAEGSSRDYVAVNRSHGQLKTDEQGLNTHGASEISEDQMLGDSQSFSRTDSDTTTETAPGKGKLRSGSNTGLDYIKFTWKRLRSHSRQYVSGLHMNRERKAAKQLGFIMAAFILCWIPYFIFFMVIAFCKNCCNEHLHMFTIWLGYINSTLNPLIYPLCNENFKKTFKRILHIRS"}, "source": "ChEMBL document CHEMBL1153163", "about": "“Synthesis and biological activity of 5-styryl and 5-phenethyl-substituted 2,3,4,5-tetrahydro-1H-pyrido[4,3-b]indoles” (Bioorg Med Chem Lett, 2010)", "key": {"Histamine H1 receptor [1]": {"target": "T1, Histamine H1 receptor (Homo sapiens, UniProt P35367)", "assay": "Antagonist activity at histamine H1 receptor in human SK-N-SH cells assessed as reduction of histamine-induced intracellular calcium spike at phase 2 treated 20 to 30 seconds after histamine challenge", "assay_type": "functional, cell-based", "in_short": "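Fura-2-loaded SK-N-SH cells with endogenous H1 receptors. Compound was added after histamine (30 s in the example shown) and scored by its effect on the rate of Ca2+ removal during the later Phase 2 of the [Ca2+]i kinetics, read by spectrofluorometer. IC50 values came from concentration curves run in duplicate.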"}, "Histamine H1 receptor [2]": {"target": "T1, Histamine H1 receptor", "assay": "Antagonist activity at histamine H1 receptor in human SK-N-SH cells assessed as histamine-induced maximum intracellular calcium spike at phase 1 treated 15 to 20 seconds before histamine challenge"}}}
{"smiles": "Cc1ccc2c(c1)c1c(n2CCc2ccccc2)CCN(C)C1", "note": "[MARITUPIRDINE]", "values": [{"measurement": "IC50", "setting": "Histamine H1 receptor [1]", "value": 146, "unit": "nM"}, {"measurement": "IC50", "setting": "Histamine H1 receptor [2]", "value": 40, "unit": "nM"}]}
